Protein sequences, listed by entry. Tags and fused reporters are not part of them. Lines headed by an entry give the natural chain unless they say otherwise; changes in a name come on top. Residues count along the entry.
UniProt O00255, 1-459 limits assumed, stated change not applied: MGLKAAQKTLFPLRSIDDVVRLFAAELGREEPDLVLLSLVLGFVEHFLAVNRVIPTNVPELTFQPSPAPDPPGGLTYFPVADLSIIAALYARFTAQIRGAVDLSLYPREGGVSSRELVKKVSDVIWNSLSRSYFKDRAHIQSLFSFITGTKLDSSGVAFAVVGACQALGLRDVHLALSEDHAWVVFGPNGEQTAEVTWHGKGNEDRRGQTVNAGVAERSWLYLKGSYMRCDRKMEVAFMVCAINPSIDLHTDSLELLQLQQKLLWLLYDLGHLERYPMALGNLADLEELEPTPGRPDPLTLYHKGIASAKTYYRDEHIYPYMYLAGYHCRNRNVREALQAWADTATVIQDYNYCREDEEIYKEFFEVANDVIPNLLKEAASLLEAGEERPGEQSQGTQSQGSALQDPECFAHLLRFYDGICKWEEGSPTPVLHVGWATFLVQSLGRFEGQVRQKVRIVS

According to patent publication US10899758B2, “Inhibitors of the menin-MLL interaction” (Vitae Pharmaceuticals, LLC, priority 2016, dated 2021):

Assays:
[1] = system: human acute monocytic leukemia cell line MV-4-11; experiment: Assay 2 (Cell Proliferation Assay), ATP quantitation (CellTiter-Glo); type: cell-based; settings: read-out: Assay 2 (EC50, inhibition of cell proliferation); MV-4-11 cells, 72 h
Method: Potencies of inhibitor compounds against cell proliferation was assessed against the human acute monocytic leukemia cell line MV-4-11 (ATCC® CRL-9591™) based on ATP quantitation. MV-4-11 cells or toxicity control HL-60 cells (ATCC® CCL-240™) were incubated in 96-well tissue culture plates (1.67×10^4 cells in 200 μL culture media containing 10% FBS per well) with or without test compound for 72 h at 37° C., 5% CO2. After incubation, each well was mixed by pipetting and 95 μL from each well was transferred to a well in 96-well black OptiPlate® plates (PerkinElmer). An equal volume of CellTiter-Glo® Luminescent Cell Viability Assay reagent (Promega) was added to each well, followed by mixing for 5 min on an orbital plate shaker. Luminescence was measured on a Wallac EnVision 2104 Multilabel Reader (PerkinElmer) to quantitate ATP. Percent inhibition of cell proliferation by test compounds was calculated based on uninhibited cell growth (DMSO) versus cells treated with a potent menin inhibitor at a concentration yielding at least 100×LD50.

[2] = biological target: menin/MLL binding (biotinylated wild-type or mutated menin and MLL-AF9 fusion protein) (Homo sapiens, UniProt O00255); experiment: Assay 1 (Binding Assay): AlphaLISA menin/MLL binding; settings: read-out: Assay 1 (IC50, menin/MLL binding), 5 nM biotinylated menin, MLL-AF9-FLAG lysate
Method: Potencies of inhibitor compounds against menin/MLL binding were assessed by AlphaLISA assay using biotinylated (1) wild-type menin or (2) mutated menin (described in Nature (2012) Vol. 482, pp. 542-548) and MLL-AF9 fusion protein bearing a FLAG epitope at its C-terminus. Menin proteins were expressed in E. coli and covalently modified with biotin using EZ-Link™ Sulfo-NHS-Biotin (ThermoFisher Cat. No. 21217) according to manufacturer's protocol. MLL1-1,396 fused to AF91-92 and the C-terminal FLAG peptide was expressed in HEK293 cells and used as a lysate cleared at 21,000×g for 10 min.
Compounds (2 μL of solutions in DMSO) were dispensed in white 96-well half-area plates (Corning Cat. No. 3693) and incubated for 30 min at RT with 5 nM biotinylated menin and appropriate amount of MLL-AF9-FLAG lysate in 40 μL of 50 mM Tris-HCl buffer pH 7.4 containing 5% (v/v) DMSO, 50 mM NaCl, 0.01% (w/v) bovine serum albumin (BSA) and 1 mM DTT. To this incubation mixture, 40 μl of AlphaLISA anti-FLAG acceptor (PerkinElmer Cat. No. AL112C) and streptavidin donor (PerkinElmer Cat. No. 6760002) beads (10 μg/mL each) was added and incubation continued at RT for 60 min. Alpha (amplified luminescent proximity homogeneous assay) signal was measured on an Envision multi-label plate reader at the end of the incubation. All steps were conducted under dim fluorescent light. […]

EC50 [1] [nM]	SMILES	IC50 [2] [nM]
100 to 1000	CC(C)N(C)C(=O)c1cc(F)ccc1-n1cc(C2CCC(N3CCC(O)C3)CC2)c2ccncc21 (stereo not drawn)	< 100
–	CC(C)N(C)C(=O)c1cc(F)ccc1-n1cc(C2CC3CN(C[C@H]4CC[C@H](NS(C)(=O)=O)CC4)CC3C2)c2ccncc21 (stereo partly drawn)	< 100
